Reference: ChEMBL document CHEMBL4725433, “Methyl Scanning and Revised Binding Mode of 2-Pralidoxime, an Antidote for Nerve Agent Poisoning” (2020)
Activity calls are given as the source filed them. The calls are words filed in the database; no cut-off is given here.

Protein sequences, listed by entry. Tags and fused reporters are not part of them. Lines headed by an entry give the natural chain unless they say otherwise; changes in a name come on top.
UniProt P22303: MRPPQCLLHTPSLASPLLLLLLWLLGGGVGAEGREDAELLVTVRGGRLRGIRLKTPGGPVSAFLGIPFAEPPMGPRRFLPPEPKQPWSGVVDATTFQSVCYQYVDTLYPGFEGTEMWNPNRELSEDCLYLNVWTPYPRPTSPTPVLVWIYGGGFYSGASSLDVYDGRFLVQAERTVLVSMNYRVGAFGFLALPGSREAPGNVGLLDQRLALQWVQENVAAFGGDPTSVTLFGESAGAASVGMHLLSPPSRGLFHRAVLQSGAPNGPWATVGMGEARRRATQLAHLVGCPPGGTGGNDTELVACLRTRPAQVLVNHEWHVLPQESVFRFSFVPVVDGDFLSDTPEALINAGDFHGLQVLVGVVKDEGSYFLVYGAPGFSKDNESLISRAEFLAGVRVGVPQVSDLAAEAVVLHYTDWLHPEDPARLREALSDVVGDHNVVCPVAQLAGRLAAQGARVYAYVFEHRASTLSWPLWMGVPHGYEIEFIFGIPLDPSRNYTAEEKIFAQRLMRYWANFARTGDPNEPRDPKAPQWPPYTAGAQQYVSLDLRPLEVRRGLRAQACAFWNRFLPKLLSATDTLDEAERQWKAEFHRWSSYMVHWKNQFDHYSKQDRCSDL
UniProt O42275: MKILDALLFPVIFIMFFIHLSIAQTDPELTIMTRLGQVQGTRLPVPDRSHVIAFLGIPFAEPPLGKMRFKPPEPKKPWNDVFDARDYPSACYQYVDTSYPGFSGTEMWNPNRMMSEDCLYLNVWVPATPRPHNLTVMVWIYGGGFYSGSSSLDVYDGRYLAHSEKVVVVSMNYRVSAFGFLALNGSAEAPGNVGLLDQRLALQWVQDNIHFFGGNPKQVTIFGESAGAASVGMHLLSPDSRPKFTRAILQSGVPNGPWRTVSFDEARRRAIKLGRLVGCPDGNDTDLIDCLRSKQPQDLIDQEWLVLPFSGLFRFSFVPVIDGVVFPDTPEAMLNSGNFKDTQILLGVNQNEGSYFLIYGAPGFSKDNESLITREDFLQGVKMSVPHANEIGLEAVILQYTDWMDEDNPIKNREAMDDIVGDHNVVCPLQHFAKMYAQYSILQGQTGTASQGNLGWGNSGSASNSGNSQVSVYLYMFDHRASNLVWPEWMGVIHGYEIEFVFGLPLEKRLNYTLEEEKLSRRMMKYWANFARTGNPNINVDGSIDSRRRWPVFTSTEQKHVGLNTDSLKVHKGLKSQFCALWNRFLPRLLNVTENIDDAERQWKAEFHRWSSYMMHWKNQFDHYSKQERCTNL

How the values were obtained:
[1] = biological target: Acetylcholinesterase (Homo sapiens) (UniProt P22303); assay: Reactivation of paraoxon ethyl-inhibited human AChE assessed as relative reactivation using S-acetylthiocholine iodide as substrate incubated for 10 mins with paraoxon ethyl followed by at 18.8 uM measured after 60 mins by Ellman's method relative to 2-PAM; set-up: scale not given: the % may be the effect or the level left
[2] = biological target: Acetylcholinesterase (Homo sapiens) (UniProt P22303); assay: Reactivation of paraoxon ethyl-inhibited human AChE assessed as relative reactivation using S-acetylthiocholine iodide as substrate incubated for 10 mins with paraoxon ethyl followed by at 75 uM measured after 60 mins by Ellman's method relative to 2-PAM; set-up: scale not given: the % may be the effect or the level left
[3] = biological target: Acetylcholinesterase (Electrophorus electricus) (UniProt O42275); assay: Reactivation of paraoxon ethyl-inhibited Electrophorus electricus AChE assessed as relative reactivation using acetylthiocholine iodide as substrate preincubated for 10 mins with paraoxon ethyl followed by at 18.8 uM measured after 30 mins by Ellman's method relative to 2-PAM; set-up: scale not given: the % may be the effect or the level left
[4] = biological target: Acetylcholinesterase (Electrophorus electricus) (UniProt O42275); assay: Reactivation of paraoxon ethyl-inhibited Electrophorus electricus AChE using acetylthiocholine iodide as substrate preincubated for 10 mins with paraoxon ethyl followed by at >150 uM measured after 30 mins by Ellman's method; settings: dose microM >150, time 30.0 min
[5] = biological target: Acetylcholinesterase (Homo sapiens) (UniProt P22303); assay: Reactivation of paraoxon ethyl-inhibited human AChE assessed as relative reactivation using S-acetylthiocholine iodide as substrate incubated for 10 mins with paraoxon ethyl followed by at 18.8 uM measured after 60 mins by Ellman's method; set-up: scale not given: the % may be the effect or the level left
[6] = biological target: Acetylcholinesterase (Electrophorus electricus) (UniProt O42275); assay: Reactivation of paraoxon ethyl-inhibited Electrophorus electricus AChE using acetylthiocholine iodide as substrate preincubated for 10 mins with paraoxon ethyl followed by at 150 uM measured after 30 mins by Ellman's method; settings: time 20.0 min

Compound	Activity ([1]; filed as activator)	Activity ([2]; filed as activator)	Activity ([3]; filed as activator)	Activity [4]	Activity ([5]; filed as activator)	Activity ([6]; filed as activator)	Activity [1]	Activity [2]	Activity [3]	Activity [5]	Activity [6]
Cc1cccc(/C=N/O)[n+]1C	45%	62%	87%	inactive	43%	Active					
Cc1ccc[n+](C)c1/C=N/O							11%	20%	13%	13%	inactive
Cc1ccc(/C=N/O)[n+](C)c1			44%				32%	37%		34%	inactive
Cc1cc[n+](C)c(/C=N/O)c1	68%	85%	90%	inactive	67%	Active					
